From ChEMBL document CHEMBL1649335, “Discovery of {1-[4-(2-{hexahydropyrrolo[3,4-c]pyrrol-2(1H)-yl}-1H-benzimidazol-1-yl)piperidin-1-yl]cyclooctyl}methanol, systemically potent novel non-peptide agonist of nociceptin/orphanin FQ receptor as analgesic for the treatment of neuropathic pain: design, synthesis, and structure-activity …” (Bioorg Med Chem, 2010)

The chains behind the UniProt entries cited, without tags or fusion partners.
UniProt P47747, whole entry: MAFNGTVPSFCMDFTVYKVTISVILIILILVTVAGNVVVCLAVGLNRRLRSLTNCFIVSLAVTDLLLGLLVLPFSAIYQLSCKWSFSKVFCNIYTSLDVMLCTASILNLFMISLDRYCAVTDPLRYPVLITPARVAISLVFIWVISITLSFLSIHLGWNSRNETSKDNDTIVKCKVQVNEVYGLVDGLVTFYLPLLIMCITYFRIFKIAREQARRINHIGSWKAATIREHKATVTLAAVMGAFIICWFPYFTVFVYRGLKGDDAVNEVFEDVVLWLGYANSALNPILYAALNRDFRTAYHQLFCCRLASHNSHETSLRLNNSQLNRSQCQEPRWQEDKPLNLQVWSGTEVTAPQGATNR

Molecular target: Histamine H2 receptor (Cavia porcellus, UniProt P47747)

CN/C(=N/CCSCc1nc[nH]c1C)NC#N [CIMETIDINE]
IC50: 1.02 µM
